# B1: SEQ ID21: monoclonal human IgG4 antibody in natural configuration (listed as human IgG4 FC fragment) (protein, listed as Homo sapiens)
# chain: ASTKGPSVFPLAPCSRSTSESTAALGCLVKDYFPEPVTVSWNSGALTSGVHTFPAVLQSSGLYSLSSVVTVPSSSLGTKTYTCNVDHKPSNTKVDKRVESKYGPPCPSCPAPEFLGGPSVFLFPPKPKDTLMISRTPEVTCVVVDVSQEDPEVQFNWYVDGVEVHNAKTKPREEQFNSTYRVVSVLTVLHQDWLNGKEYKCKVSNKGLPSSIEKTISKAKGQPREPQVYTLPPSQEEMTKNQVSLTCLVKGFYPSDIAVEWESNGQPENNYKTTPPVLDSDGSFFLYSRLTVDKSRWQEGNVFSCSVMHEALHNHYTQKSLSLSLGK
# Test system: CD4+ T cells and NKT cells
# Experiment: peripheral blood CD4+ T cells cultured with human dendritic cells loaded with natural or mutated antibody
# Type: cell-based
# Conditions: 5 to 7 days culture
# Text: Monoclonal human antibodies of the IgG4 isotype were derived from the peripheral blood B lymphocytes by transformation with the Epstein-Barr virus. The genomic sequence of such antibodies was obtained from transformed B cells. A viral vector containing the corresponding cDNA sequence was constructed and used for transfection of CHO cells. All these methods are known in the art (see for instance, Jacquemin et al Blood 92: 496-506, 1998).
# The hydrophobic aminoacid residues located in position 1 in the peptides of SEQ ID18 and SEQ ID20 were mutated to a serine and the mutated antibody produced by transfected CHO cells.
# Peripheral blood CD4+ T cells obtained as above were exposed in culture medium to human dendritic cells (derived from human peripheral blood monocytes by methods known in the art) and loaded with either the antibody in natural configuration (SEQ ID21) or its mutated counterpart (SEQ ID22). After culturing the cells with CD4+ T cells for 5 to 7 days, the population of CD4+ T cells activated by either natural or mutated antibody was evaluated. CD4+ NKT cells were separated from CD4+ T cells using an antibody to NKG2D, a surface marker associated with NK or NKT cells only.
molecule,measurement,setting,value
B1,activation of class II restricted CD4+ T cells,,CD4+ T cells and NKT cells were activated
same,activation of NKT cells,NKT cells separated with antibody to NKG2D,CD4+ T cells and NKT cells were activated
